Measured values reported in ChEMBL document CHEMBL1126621 (J Med Chem, 1993).

Sequences of proteins named here, by UniProt entry; tags and fusion partners are left off.
UniProt P32300, whole entry: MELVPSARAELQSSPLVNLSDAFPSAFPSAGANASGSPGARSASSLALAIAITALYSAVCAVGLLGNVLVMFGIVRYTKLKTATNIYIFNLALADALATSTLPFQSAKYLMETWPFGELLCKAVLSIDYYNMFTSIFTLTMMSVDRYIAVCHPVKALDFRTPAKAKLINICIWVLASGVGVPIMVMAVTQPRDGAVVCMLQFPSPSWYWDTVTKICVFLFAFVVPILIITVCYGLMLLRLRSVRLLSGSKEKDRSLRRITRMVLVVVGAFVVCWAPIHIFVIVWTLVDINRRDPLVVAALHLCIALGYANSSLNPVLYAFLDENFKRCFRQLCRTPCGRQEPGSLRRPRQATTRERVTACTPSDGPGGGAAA

Target: Delta-type opioid receptor (Mus musculus, UniProt P32300)
Experiment: Inhibition of delta-selective antagonist binding to opioid receptor of mouse vas dferens
Summary of the method: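 Mouse vas deferens at 500 mg tension in Mg-free Krebs, 37 °C, 95% O2/5% CO2. Field-stimulated with 2-ms supramaximal pulses; isometric contractions recorded. Cumulative concentration-response. At least 2 assays in duplicate.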

CC[C@H](C)[C@H](NC(=O)[C@H](CCCNC(=N)N)NC(=O)[C@H](CCCNC(=N)N)NC(=O)[C@H](CC(C)C)NC(=O)[C@H](Cc1ccccc1)NC(=O)CNC(=O)CNC(=O)[C@@H](N)Cc1ccc(O)cc1)C(=O)N[C@@H](CCCNC(=N)N)C(=O)N1CCC[C@H]1C(=O)N[C@@H](CCCCN)C(=O)N[C@@H](CC(C)C)C(=O)N[C@@H](CCCCN)C(=O)N[C@@H](Cc1c[nH]c2ccccc12)C(=O)N[C@@H](CC(=O)O)C(=O)N[C@@H](CC(N)=O)C(=O)N[C@@H](CCC(N)=O)C(=O)O [DYNORPHIN A (1-17)]
IC50: 39.7 nM
